Measured affinities in a library of Ab-14 light chain variants

Source: Li et al. 2023 (doi:10.1038/s41467-023-39022-2), MIT Lincoln Laboratory and A-Alpha Bio; data file from the FLAb repository.

Binding partner: SARS-CoV-2 spike HR2 peptide, sequence PDVDLGDISGINAS.

The variants keep the heavy chain, the linker and the frameworks of Ab-14 (scFv order VH, the linker GGGGSGGGGSGGGGS, VL).
VH: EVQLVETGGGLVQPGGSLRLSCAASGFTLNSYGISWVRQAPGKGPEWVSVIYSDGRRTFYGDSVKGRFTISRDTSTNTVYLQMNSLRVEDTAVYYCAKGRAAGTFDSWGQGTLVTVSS
VL: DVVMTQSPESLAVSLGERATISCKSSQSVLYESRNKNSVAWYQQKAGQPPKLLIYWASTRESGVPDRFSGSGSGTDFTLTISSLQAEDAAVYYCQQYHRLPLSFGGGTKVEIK

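The starting antibody came from a phage panning campaign against this peptide. This is the validation round: designs drawn from the data on random variants, tested in the same kind of assay. Several design methods are mixed in this list. The assay is AlphaSeq: two haploid yeast populations carry antibody and antigen on their surface. Mating (16 h, 30 °C) was followed by selection of diploids and sequencing of their barcodes. The ratio of observed to expected reads was calibrated, replicate by replicate, on BCL2-family standards whose Kd was known from biolayer interferometry. Mating was done six times.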

Changes read parent residue, position, new residue, counted from the first residue of the VL shown.
This list holds designs with at most six substitutions.
Kd is apparent (estimated from mating counts) and averaged on the log scale over replicates with a signal. Smaller is tighter.
Where no diploid with the target was found in any replicate, the entry reads "no signal": below detection, most likely a poor binder, though not proof of it.
The parent sequence was in this pool as ten entries: three were never detected, three once, and four in most replicates, with averages from 2.2 nM to 240 nM.
In the paper, a design with two or fewer of six values counts as a poor binder.
Three control strains display no target. For all light chain designs, 4% of the pairings with them gave a signal, with a median of 430 nM and one signal in twenty below 38 nM, so weak values seen in few replicates may be background.
A sequence measured in both rounds can read differently, since the two assays cover different ranges.

The variant S26L+V29E+K36F+W56H+S62D showed 7.9 nM (6 of 6 replicates). For Q27L+V29Y+S38N+S62N+L102E, the assay gave 67 nM (1 of 6 replicates). For S26L+K36F+W56H+S62D, the assay gave 20 nM (6 of 6 replicates). The variant S25I+L100A gave 24 nM (6 of 6 replicates). With S25F+S26R+V29T+W56G the result was 3.1 nM (6 of 6 replicates). For V29D+Y31D+W56Q+S58H, the assay gave 1.6 nM (6 of 6 replicates). With S25V+S33E+W56Q the result was 860 pM (6 of 6 replicates). With S25V+V29F+W56N the result was 480 pM (6 of 6 replicates).

With R34L+N35L+K36F the result was 320 nM (1 of 6 replicates). The variant S25T+V29A+S33F+P101H gave no signal (0 of 6 replicates). The variant S25L+S26Y+V29T+W56N gave 1.3 nM (6 of 6 replicates). The variant S25L+S26E+V29T+W56N+T59Q+H98K showed 840 pM (6 of 6 replicates). The variant S25F+S28W+V29M+N35T+W56N showed 1.5 nM (6 of 6 replicates). The variant S25L+S26Y+V29E+W56N+S62D showed 440 pM (6 of 6 replicates). The variant S26R+L30W+Q95V showed no signal (0 of 6 replicates). The variant S25L+L30E+K36S+W56N gave 570 pM (6 of 6 replicates).

For S25M+V29Y+L30H+W56G, the assay gave 920 pM (6 of 6 replicates). The variant S25L+V29G+W56H+Q96D gave 610 pM (6 of 6 replicates). For S26G+Q27S+S28G+W56G, the assay gave 680 pM (6 of 6 replicates). The variant S25L+W56Y showed 3.6 nM (6 of 6 replicates). The variant S25L+S26Q+V29E+K36V+W56D gave 730 pM (6 of 6 replicates). The variant S25Q+S26D+Q27G+N37G+W56G+R99G gave 2.9 nM (6 of 6 replicates). The variant S25L+S26E+V29T+L30K+K36Q showed 160 nM (1 of 6 replicates). The variant N35F+W56N showed 9.7 nM (6 of 6 replicates).

The variant Y31T+E32A+N35Q+W56H+T59W showed 79 nM (1 of 6 replicates). The variant S25L+L30E+W56N+S103M showed 1.2 nM (6 of 6 replicates). With Q27W+Y31F+W56E+E61S the result was 3.6 nM (6 of 6 replicates). With K24H+Q27P+Y31A+A40F+W56N the result was 34 nM (6 of 6 replicates). The variant S25I+S26E+V29M+K36V+W56N+S62V gave 770 pM (6 of 6 replicates). The variant V29S+L30T+W56D gave 11 nM (6 of 6 replicates). The variant S25I+R34T+W56A+T59I+Y97C+H98R gave 210 nM (6 of 6 replicates). For Q27P+V29I, the assay gave 20 nM (5 of 6 replicates).

Excerpt, the final 2 entries:

S25I+R34T+W56A+T59I+Y97C+H98R: 210 nM (6 of 6 replicates).
Q27P+V29I: 20 nM (5 of 6 replicates).